This is an account of results in patent US20100036088A1, “Selective poly-N-substituted glycine antibiotics” (priority 2008, published 2010).

Each structure is given as a SMILES string.

Series [1] has as its system human erythrocytes. The series is described as follows: Hemolysis assay. It is filed as cell-based. The note with it: Table 1. On the procedure: Hemolysis assays. Erythrocytes were isolated from freshly drawn, heparanized human blood and resuspended to 20 vol % in PBS (pH 7.4). In a 96-well microtiter plate, 100 μL erythrocyte suspension was added to 100 μL peptoid solution in PBS (prepared by 1:2 serial dilutions), or 100 μL PBS in the case of negative controls. 100% hemolysis wells contained 100 μL blood cell suspension with 100 μL 0.2 vol % Triton X-100. The plate was incubated for 1 h at 37° C., then each well was diluted with 150 μL PBS. The plate was then centrifuged at 1200 g for 15 min, 100 μL of the supernatant from each well transferred to a fresh microtiter plate, and A350 measured.
Hemolysis assays. Erythrocytes were isolated from freshly drawn, heparanized human blood and resuspended in PBS (pH 7.4) to make a 20% volume suspension. Peptoid solutions were prepared by serial dilution (2:1) in a 96-well microtiter plate. For test wells, 100 μL of erythrocyte suspension was added to 100 μL of peptoid solution in PBS; PBS without peptoid was used as the negative control and 0.2 vol % Triton X-100 as the positive control that indicates 100% hemolysis. After 1 hour incubation at 37° C., each well was diluted with 150 μL PBS. Plates were then centrifuged at 1,200×g for 15 minutes to pellet the cells. […]

In series [2] the test system is E. coli JM109. It is filed as cell-based. Particulars: Table 1. The source says: (§1) An initial set of 15 ampetoid analogs was synthesized to determine whether peptoids are affected by structural and sequence modifications in a manner consistent with AMP activities. The designs for ampetoids in this library were derived from two antibacterial and selective amphipathic dodecamers, 1 and 2. Peptoid 1 [H-(Nlys-Nspe-Nspe)4—NH2] is composed of 2/3 Nspe, the peptoid analog of phenylalanine, and 1/3 Nlys, the peptoid analog of lysine (see FIG. 1 for the structures of representative peptoid monomers and corresponding N-substituents). Peptoid 2 [H-(Nlys-Nssb-Nspe)4—NH2] contains 1/3 isoleucine-like Nssb monomers in place of Nspe. The variant sequences were designed to effect changes in chirality, length, hydrophobicity, charge, and amphipathicity. All of these compounds were tested for antibacterial activity against representative BSL1 Gram-negative (E. coli JM109) and Gram-positive (B. subtilis BR151) bacterial strains. As an initial measure of selectivity, the lytic activity of the peptoids was determined against human erythrocytes. Table 1 summarizes the sequences synthesized, the solvent composition at RP-HPLC elution as a relative measure of molecular hydrophobicity, and antibacterial and hemolytic activities.
(§2) Antibacterial assays. MICs were determined according to CLSI M7-A6 protocols in a 96-well microtiter plate. […]

In series [3] the test system is B. subtilis BR151. Format: cell-based. The note with it: Table 1.
Excerpt: as §1, §2

Series [4] in a line: RP-HPLC elution solvent composition as measure of molecular hydrophobicity. The note with it: Table 1; percent acetonitrile in water, 0.1% (v/v) TFA at HPLC elution. Format: physicochemical.
Excerpt: as §1, with “hemolytic activities. […]” for “hemolytic activities.”

As to `CC[C@H](C)[C@H](NC(=O)CN)C(=O)NCC(=O)N[C@@H](C)C(=O)N[C@H](C(=O)N[C@@H](CC(C)C)C(=O)N[C@@H](CCCCN)C(=O)N[C@H](C(=O)N[C@@H](CC(C)C)C(=O)N[C@H](C(=O)N[C@H](C(=O)NCC(=O)N[C@@H](CC(C)C)C(=O)N1CCC[C@H]1C(=O)N[C@@H](C)C(=O)N[C@@H](CC(C)C)C(=O)N[C@H](C(=O)N[C@@H](CO)C(=O)N[C@@H](Cc1c[nH]c2ccccc12)C(=O)N[C@H](C(=O)N[C@@H](CCCCN)C(=O)N[C@@H](CCCNC(=N)N)C(=O)N[C@@H](CCCCN)C(=O)N[C@@H](CCCNC(=N)N)C(=O)N[C@@H](CCC(N)=O)C(=O)N[C@@H](CCC(N)=O)C(N)=O)[C@@H](C)CC)[C@@H](C)CC)[C@@H](C)O)[C@@H](C)O)C(C)C)C(C)C` [melittin, reference compound], in series [1], the “HD10 (10% hemolytic dose)” value was determined as 2 µM and the “HD50 (50% hemolytic dose)” value was 6 µM. In addition, the “E. coli MIC” value in series [2] came out at 1.6 µM. The “B. subtilis MIC” value in series [3] was 0.78 µM. Further, the HPLC elution solvent in series [4] was 54%.
